Values of other authors in patent US5206260A, “Hexahydropyrrolo[2,3-b]indole derivatives” (priority 1991, dated 1993).

Settings: background statement; cited from earlier work

CNC(=O)Oc1ccc2c(c1)[C@]1(C)CCN(C)[C@@H]1N2C [physostigmine, trimethyl-1,3a,8-hexahydro-1,2,3,3a,8,8a-pyrrol[2,3-b]indole-5(3aS,8aR)methylcarbamate]
oral bioavailability: poor oral bioavailability
